The numbers were not newly measured in US20260335453A1, “ISOINDOLINONE-GLUTARIMIDE ANTIBODY CONJUGATES, AND USES THEREOF” (FIREFLY BIO, INC., priority 2023, published 2026), which cites them from elsewhere.

This data set has as its target extracellular domain of HER2. The following applies: cell-based assay; cited from earlier work.

With Trastuzumab, the Kd was 5 nM.
